By inhibition is commonly meant the share of the control response that was lost under treatment.

The chains behind the UniProt entries cited, without tags or fusion partners. Where a name states a change or a piece, a line headed by the entry shows the natural chain unless it says otherwise.
UniProt P08253: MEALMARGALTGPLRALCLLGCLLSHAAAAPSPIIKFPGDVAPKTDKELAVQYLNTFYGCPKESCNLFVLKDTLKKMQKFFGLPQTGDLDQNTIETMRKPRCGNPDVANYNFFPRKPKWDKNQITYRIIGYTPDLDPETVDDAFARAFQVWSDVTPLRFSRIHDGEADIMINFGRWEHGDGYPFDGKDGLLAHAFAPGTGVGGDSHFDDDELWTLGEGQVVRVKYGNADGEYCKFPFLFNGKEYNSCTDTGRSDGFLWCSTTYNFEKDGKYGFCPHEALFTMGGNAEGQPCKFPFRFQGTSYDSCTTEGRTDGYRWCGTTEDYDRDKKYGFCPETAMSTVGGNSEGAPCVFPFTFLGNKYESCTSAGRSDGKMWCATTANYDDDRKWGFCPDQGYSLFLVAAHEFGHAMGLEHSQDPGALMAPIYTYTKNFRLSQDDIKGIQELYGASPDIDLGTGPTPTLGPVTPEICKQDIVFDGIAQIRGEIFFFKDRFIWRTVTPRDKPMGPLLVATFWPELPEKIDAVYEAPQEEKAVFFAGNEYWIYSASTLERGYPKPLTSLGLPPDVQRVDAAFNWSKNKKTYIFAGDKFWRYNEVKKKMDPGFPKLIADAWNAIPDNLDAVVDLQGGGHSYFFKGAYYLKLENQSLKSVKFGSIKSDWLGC
UniProt P08254: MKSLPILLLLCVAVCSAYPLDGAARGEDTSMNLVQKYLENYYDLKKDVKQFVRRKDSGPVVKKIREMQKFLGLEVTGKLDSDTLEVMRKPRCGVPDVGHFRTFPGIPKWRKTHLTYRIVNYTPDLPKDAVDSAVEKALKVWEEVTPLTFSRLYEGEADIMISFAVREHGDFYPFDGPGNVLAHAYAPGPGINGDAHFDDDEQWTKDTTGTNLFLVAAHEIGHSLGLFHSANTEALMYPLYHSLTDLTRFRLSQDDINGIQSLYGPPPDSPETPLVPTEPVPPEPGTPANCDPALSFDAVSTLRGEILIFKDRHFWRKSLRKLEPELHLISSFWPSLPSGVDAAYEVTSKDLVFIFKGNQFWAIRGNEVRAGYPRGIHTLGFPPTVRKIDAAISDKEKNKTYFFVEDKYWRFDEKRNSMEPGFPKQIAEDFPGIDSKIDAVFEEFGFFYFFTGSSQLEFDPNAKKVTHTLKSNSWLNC

Among the data in ChEMBL document CHEMBL1649420, “Identifying chelators for metalloprotein inhibitors using a fragment-based approach” (J Med Chem, 2011) are inhibition values, retold here.

Experiment [1] addresses T1, Polyunsaturated fatty acid 5-lipoxygenase (Homo sapiens) (UniProt P09917).
T1 sequence (whole entry): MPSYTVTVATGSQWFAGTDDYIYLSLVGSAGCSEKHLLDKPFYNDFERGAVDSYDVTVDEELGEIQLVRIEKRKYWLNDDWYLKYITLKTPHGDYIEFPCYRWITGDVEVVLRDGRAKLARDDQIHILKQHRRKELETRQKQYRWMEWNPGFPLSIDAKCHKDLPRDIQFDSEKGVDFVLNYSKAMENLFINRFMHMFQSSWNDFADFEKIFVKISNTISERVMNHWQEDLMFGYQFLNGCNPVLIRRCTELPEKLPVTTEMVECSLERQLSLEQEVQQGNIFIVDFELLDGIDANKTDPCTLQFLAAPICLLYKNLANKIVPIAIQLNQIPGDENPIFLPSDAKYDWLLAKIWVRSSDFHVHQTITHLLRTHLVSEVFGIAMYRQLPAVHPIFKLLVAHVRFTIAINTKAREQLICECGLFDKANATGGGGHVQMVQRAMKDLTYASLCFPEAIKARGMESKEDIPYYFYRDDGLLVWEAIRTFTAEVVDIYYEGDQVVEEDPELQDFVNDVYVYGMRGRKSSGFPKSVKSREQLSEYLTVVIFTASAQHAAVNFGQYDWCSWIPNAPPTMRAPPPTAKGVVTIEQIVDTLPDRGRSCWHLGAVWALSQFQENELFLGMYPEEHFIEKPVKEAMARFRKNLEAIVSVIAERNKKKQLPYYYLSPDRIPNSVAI
The experiment is described as follows: Inhibition of human recombinant 5-lipoxygenase at 1 mM after 10 mins by fluorescence assay.

For experiment [2], the target named is 72 kDa type IV collagenase (Homo sapiens, UniProt P08253). The note with it: at 1 mM.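 Further: recombinant human enzyme, inhibition read after a 30 min incubation.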
Experiment [3] deals with T2, Nitric oxide synthase, inducible (Mus musculus) (UniProt P29477).
T2 sequence (whole entry): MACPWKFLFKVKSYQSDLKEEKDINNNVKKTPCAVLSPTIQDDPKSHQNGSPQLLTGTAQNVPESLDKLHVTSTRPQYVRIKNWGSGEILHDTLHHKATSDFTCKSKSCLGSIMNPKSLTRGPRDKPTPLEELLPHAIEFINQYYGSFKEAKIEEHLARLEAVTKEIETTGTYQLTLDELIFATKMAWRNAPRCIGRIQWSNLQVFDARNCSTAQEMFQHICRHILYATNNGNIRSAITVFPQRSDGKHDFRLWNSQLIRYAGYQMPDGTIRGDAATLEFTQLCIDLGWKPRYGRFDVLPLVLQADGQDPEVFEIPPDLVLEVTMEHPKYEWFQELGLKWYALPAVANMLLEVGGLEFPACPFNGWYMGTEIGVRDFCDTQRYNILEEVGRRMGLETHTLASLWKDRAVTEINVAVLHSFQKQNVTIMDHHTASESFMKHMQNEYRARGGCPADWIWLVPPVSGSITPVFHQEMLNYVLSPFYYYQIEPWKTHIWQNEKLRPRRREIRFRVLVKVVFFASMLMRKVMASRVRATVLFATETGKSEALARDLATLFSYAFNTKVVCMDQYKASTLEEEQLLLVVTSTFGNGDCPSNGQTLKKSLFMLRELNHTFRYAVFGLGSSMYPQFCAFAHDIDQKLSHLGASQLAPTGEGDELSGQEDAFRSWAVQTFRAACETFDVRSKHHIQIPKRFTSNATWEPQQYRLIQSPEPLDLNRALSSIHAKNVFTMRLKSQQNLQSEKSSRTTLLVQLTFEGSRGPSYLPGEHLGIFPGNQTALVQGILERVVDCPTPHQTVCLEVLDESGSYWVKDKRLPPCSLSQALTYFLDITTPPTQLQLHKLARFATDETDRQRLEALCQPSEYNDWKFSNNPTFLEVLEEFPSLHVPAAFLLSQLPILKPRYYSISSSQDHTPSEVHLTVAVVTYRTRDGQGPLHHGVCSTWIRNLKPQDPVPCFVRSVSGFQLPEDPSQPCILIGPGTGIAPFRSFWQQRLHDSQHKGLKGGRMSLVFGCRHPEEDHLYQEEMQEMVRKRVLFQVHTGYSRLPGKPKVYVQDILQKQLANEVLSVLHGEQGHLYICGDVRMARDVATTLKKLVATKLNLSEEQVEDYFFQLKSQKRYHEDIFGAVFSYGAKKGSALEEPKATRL
The following applies: at 1 mM.

In experiment [4] the target is Stromelysin-1 (Homo sapiens) (UniProt P08254). The following applies: at 1 mM.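 Further: recombinant enzyme, inhibition read after a 30 min incubation.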

For `O=c1cc[nH]c(=S)[nH]1`, the inhibition in experiment [1] was determined as 71%.

The compound `Oc1nccc(S)n1` displayed an inhibition in experiment [2] of 89%.

In experiment [3], `O=c1ccc2ccccc2[nH]1` displayed an inhibition of 54%.

Regarding `O=C(O)c1cccnc1C(=O)O`, the inhibition in experiment [4] came to 82%.
